Laboratory results reported in patent US20020115721A1, “Esters of alkycarboxy amino acids as prodrugs of modulators of the kainate receptor” (Annovis, Inc., priority 2000, published 2002).

Chains of the proteins cited; added tags and fusions are not shown. Residues count along the entry.
UniProt P42260, 32-908: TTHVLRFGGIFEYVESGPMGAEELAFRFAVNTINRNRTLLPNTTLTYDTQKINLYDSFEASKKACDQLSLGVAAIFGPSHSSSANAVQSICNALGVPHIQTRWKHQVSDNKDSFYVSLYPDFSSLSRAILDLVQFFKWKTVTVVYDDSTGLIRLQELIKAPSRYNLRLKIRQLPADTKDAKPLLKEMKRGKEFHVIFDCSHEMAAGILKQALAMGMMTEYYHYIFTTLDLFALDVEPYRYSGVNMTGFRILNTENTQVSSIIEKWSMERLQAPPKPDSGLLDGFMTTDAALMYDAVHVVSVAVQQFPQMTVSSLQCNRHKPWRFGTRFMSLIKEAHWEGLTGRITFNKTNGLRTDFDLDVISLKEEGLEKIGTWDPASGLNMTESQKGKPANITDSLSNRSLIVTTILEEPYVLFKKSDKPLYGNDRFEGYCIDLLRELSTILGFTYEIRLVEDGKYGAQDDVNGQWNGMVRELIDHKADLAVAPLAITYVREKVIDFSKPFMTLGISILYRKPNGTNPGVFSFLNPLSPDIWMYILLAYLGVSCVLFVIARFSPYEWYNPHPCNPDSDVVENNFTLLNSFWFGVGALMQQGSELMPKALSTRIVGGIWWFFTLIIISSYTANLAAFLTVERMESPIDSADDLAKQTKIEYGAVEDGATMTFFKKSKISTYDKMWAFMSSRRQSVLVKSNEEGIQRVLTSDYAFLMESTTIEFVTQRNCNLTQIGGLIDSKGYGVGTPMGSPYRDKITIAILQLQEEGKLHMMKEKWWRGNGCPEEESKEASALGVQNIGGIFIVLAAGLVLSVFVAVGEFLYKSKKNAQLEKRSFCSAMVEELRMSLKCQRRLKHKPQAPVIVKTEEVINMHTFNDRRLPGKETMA

How the values were obtained:
Sprague-Dawley rats = assay: Rat allodynia/hyperalgesia pain model after capsaicin; assay type: in vivo; settings: summary
Protocol: This test is to determine the extent of protection by a test compound to neuropathic pain sensations. With the rat standing on an elevated perforated floor, mechano-allodynia is measured by applying from beneath a graded series of von Frey hairs to the mid-plantar region of the effected paws. The hair that evokes at least one withdrawal response is designated the threshold level when compared to the sham treated nerve. Alternatively, the paw can be illuminated with a noxious radiant heat and the time to paw withdrawal is measured.
The model is described by Bennett, Neuro. Report 5, 1438-1440 (1994), and references cited therein. […]
A total of 40 adult male Sprague-Dawley rats, 250-300 g, were used. Baseline measures of withdrawal responses evoked by heat and mechanical stimuli were determined for each hind paw and obtained for at least 4 consecutive days until withdrawal and latency responses were stable. […] Each group was randomly assigned to 1 of 4 treatment conditions: vehicle, 10, 50, or 100 mg/kg compound i.p. On test day, withdrawal responses to heat and mechanical stimuli were measured before intraperitoneal injection of the treatment condition. […] Withdrawal responses to heat and mechanical stimuli were again measured 5 and 30 minutes post capsaicin. […]

[1] = molecular target: Rat GluR6 kainate receptors (Rattus norvegicus, UniProt P42260)
Excerpt: Tissue slice or whole cell electrophysiology as described by Yamada (Neurophysiology, 1994 and references therein) is used to measure agonist, partial agonist, or antagonist properties of drugs for glutamate receptors. […] This is distinct from the binding affinity.
Rat GluR6 kainate receptors were expressed in HEK 293 cells in culture and evaluated by the patch clamp technique.

C[C@H](C[C@H](N)C(=O)O)C(=O)O [Compound 1, (2S,4R)-4-Methyl glutamic acid]
dose at which activity was shown (Sprague-Dawley rats; i.p.): 50 mg/kg
duration of activity (Sprague-Dawley rats; parent compound): up to 30 minutes
block of current evoked by 300 mM kainate ([1]; 10 nM to 20 μM, rat GluR6 expressed in HEK 293 cells, patch clamp): completely and reversibly blocked
modulation of kainate receptor ([1]; whole cell electrophysiology): modulates
